pIC50: −log10 of the molar value.
Biological target: human P2X3 (Homo sapiens, UniProt P56373)
Test: Intracellular Calcium Measurement to Assess Antagonist Affinity (FLIPR, Fluo-4)
Settings: Intracellular Calcium Measurement to Assess Antagonist Affinity assay; agonist α,β-meATP at EC50
Source text: Generation of a Human P2X3 and P2X2/3 Stable Cell Line—Human P2X3 receptor cDNA (Accession number NM_002559) was subcloned as a 5′XhoI and 3′HindIII fragment into the expression vector pcDNA5/FRT (Invitrogen). Human P2X2 receptor cDNA (Accession number NM_174873) was subcloned as a 5′EcoRI and 3′NotI fragment into the expression vector pIRESneo2 (BD Biosciences Clontech). The human P2X3 expression construct was transfected using Lipofectamine 2000 (Invitrogen) into Flp-in—293 cells (Invitrogen) according to the manufacturer's directions. Cells positive for flp-mediated recombination of rhesus P2X3 were selected using 150 μg/ml hygromycin. […] Intracellular Calcium Measurement to Assess Antagonist Affinity—A fluorescent imaging plate reader (FLIPR; Molecular Devices) was used to monitor intracellular calcium levels using the calcium-chelating dye Fluo-4 (Molecular Probes). The excitation and emission wavelengths used to monitor fluorescence were 488 nm and 530 nm, respectively. […] During this period fluorescence data is collected at 3 sec intervals followed by 10 sec intervals. […] Following agonist addition fluorescence was measured at 5 sec intervals and analyzed based on the increase in peak relative fluorescence units (RFU) compared to the basal fluorescence. […]

By UniProt entry, the sequences of proteins in these tests, tags left out.
UniProt P56373, whole entry: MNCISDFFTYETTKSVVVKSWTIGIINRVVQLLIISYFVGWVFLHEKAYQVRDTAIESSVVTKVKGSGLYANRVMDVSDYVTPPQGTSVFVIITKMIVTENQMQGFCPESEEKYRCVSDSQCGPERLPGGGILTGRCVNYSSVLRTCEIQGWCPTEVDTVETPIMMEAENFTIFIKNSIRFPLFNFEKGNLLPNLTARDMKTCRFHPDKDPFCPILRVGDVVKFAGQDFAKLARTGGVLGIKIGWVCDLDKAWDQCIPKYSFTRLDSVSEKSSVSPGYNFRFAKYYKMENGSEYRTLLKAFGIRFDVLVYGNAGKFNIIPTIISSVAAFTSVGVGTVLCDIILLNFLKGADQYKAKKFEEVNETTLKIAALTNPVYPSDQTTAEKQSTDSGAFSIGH

Cc1noc([C@@H](C)NC(=O)c2cc3c(-c4ccc(F)cc4F)n(CCO)nc3s2)n1
pIC50: 7.20
